Reference: ChEMBL document CHEMBL1131589, “Derivation of a pharmacophore model for anandamide using constrained conformational searching and comparative molecular field analysis” (J Med Chem, 1998)

Amino acid sequences for entries named in this document (tags omitted).
UniProt P20272, whole entry: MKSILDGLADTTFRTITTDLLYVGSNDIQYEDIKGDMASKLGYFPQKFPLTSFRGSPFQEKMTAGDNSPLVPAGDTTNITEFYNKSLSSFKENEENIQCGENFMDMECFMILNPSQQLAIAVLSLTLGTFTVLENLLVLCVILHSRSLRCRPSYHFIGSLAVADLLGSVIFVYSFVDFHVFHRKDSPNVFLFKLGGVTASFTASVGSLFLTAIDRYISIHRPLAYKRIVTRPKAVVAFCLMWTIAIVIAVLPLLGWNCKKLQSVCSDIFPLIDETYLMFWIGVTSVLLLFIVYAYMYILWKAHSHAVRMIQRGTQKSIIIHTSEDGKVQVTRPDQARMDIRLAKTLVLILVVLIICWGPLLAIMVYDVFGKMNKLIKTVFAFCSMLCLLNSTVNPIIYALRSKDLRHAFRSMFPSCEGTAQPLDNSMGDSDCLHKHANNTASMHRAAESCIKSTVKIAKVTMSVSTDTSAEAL

Target: Cannabinoid receptor 1 (Rattus norvegicus, UniProt P20272)
Test: Displacement of [3H]CP-55940 binding to Cannabinoid receptor 1 in rat brain membranes
Type: cell membranes

CCCCC/C=C\C/C=C\C/C=C\C/C=C\CCCC(=O)NCCO [ANANDAMIDE]
Ki: 22 nM
